From the kinase profiling compilation of Christmann-Franck et al. (2016)
One block for each compound: values may come before it.

Amino acid sequences for entries named in this document (tags omitted).
UniProt P29317, whole entry, looked up: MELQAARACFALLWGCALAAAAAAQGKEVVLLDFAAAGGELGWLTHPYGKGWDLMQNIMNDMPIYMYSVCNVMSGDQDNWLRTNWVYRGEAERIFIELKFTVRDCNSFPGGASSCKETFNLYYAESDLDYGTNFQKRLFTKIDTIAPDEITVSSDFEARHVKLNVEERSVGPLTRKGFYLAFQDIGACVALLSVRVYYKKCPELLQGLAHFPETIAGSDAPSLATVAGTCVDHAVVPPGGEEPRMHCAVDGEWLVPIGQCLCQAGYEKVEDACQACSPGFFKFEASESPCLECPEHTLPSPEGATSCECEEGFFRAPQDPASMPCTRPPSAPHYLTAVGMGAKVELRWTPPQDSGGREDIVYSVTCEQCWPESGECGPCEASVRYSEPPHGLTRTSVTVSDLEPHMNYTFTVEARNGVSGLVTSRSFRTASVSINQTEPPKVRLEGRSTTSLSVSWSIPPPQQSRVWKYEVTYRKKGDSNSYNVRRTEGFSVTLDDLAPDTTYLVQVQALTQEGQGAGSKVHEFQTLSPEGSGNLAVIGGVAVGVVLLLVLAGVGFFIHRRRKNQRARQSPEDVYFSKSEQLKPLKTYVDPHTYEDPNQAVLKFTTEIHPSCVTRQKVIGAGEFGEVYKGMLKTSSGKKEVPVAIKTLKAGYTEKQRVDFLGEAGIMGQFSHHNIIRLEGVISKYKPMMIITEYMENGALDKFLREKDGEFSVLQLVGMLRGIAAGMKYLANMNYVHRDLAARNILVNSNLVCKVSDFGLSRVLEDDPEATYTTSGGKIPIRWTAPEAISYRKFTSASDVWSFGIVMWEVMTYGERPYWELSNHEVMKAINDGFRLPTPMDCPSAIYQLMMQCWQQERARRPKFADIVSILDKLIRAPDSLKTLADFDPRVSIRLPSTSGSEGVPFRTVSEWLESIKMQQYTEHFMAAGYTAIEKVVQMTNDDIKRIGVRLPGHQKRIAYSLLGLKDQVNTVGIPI
UniProt Q05397, whole entry, looked up: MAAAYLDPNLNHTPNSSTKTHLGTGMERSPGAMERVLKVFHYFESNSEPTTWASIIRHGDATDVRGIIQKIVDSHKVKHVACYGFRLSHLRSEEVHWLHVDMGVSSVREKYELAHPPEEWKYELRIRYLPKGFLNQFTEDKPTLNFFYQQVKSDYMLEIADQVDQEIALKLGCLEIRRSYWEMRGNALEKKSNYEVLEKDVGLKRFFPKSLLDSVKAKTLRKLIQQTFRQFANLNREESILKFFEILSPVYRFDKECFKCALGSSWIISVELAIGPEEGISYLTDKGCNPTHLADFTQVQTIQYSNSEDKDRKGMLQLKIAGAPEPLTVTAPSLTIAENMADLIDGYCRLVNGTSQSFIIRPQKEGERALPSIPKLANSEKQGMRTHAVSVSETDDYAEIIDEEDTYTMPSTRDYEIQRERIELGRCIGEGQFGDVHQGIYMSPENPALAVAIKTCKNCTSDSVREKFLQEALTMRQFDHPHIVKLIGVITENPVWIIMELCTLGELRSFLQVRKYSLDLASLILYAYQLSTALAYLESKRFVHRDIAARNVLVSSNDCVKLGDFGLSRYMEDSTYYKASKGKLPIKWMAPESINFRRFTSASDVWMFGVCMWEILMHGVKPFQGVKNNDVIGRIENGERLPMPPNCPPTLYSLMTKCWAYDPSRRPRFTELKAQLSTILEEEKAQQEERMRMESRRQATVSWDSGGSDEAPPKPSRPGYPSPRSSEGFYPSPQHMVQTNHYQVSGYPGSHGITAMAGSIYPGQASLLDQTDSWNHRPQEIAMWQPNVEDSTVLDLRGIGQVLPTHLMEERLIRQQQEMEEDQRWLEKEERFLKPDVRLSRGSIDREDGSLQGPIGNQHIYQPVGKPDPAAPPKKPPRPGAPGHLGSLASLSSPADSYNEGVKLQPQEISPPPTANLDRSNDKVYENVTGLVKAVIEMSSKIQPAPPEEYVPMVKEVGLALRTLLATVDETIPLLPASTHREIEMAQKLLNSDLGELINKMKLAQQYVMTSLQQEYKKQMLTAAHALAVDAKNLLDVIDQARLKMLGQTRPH
UniProt P42684, whole entry, looked up: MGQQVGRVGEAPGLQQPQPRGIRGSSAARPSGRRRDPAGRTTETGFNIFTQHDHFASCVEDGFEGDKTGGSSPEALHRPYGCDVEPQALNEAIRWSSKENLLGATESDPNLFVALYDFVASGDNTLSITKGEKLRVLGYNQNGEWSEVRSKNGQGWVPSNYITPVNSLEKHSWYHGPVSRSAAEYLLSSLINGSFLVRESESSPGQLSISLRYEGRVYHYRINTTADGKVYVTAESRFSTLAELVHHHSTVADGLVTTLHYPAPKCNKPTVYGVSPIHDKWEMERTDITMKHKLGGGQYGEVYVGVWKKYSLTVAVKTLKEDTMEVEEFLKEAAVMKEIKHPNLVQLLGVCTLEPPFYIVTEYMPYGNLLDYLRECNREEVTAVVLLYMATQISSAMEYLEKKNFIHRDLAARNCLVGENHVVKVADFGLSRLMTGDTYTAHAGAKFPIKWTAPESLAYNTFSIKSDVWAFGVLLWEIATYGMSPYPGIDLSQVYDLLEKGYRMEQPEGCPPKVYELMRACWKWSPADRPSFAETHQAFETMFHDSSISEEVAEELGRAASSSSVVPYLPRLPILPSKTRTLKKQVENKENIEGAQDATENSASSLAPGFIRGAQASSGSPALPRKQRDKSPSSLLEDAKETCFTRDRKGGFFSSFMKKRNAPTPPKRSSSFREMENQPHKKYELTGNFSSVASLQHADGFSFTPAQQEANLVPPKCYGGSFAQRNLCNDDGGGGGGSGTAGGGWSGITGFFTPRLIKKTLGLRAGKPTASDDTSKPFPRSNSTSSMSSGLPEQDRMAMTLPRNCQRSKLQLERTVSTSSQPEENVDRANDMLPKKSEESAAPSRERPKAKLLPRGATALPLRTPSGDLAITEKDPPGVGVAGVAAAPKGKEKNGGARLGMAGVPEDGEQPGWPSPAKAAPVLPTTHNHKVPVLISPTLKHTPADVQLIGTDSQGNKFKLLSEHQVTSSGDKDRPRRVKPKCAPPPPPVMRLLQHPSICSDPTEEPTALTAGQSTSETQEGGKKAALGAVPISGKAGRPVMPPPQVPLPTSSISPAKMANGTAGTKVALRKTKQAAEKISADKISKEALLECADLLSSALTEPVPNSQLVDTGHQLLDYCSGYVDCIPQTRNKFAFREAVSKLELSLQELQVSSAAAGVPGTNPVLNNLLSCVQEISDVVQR

Key:
Assay in all cases: radiometric filter-binding kinase assay, Kinase HotSpot
Conditions in all cases: compound 0.5 µM; ATP 10 µM
EPHA2 (human) = EPHA2 (human) (UniProt P29317)
PTK2 (human) = PTK2 (human) (UniProt Q05397)
ABL2 (human) = ABL2 (human) (UniProt P42684)

Structure (SMILES): Cc1cncc2cccc(S(=O)(=O)N3CCCN(C(=O)CN)C[C@H]3C)c12
residual activity (EPHA2 (human)): 92%

Structure (SMILES): O=C1c2ccccc2-c2nc3nnnn3nc21
residual activity (PTK2 (human)): 87%

residual activity (ABL2 (human)): 76.3%
Structure (SMILES): CO[C@@H]1[C@H](N(C)C(=O)c2ccccc2)C[C@H]2O[C@]1(C)n1c3ccccc3c3c4c(c5c6ccccc6n2c5c31)C(=O)NC4
